Source: patent US20120149631A1 (priority 2009, published 2012)

Legend:
[1] = system: A. actinomycetemcomitans Y4; conditions: 24 h
[2] = system: K12 E. coli (ATCC #25404); conditions: read-out: EC50 uM, 3 h incubation, CFU enumeration
horse erythrocytes = conditions: red cells of horse, 1 h

| Compound | EC50 [1] [nM] | EC50 [2] [µM] | hemolysis (horse erythrocytes; 100 ug/ml) [%] | hemolysis (horse erythrocytes; 1000 ug/ml) [%] |
| --- | --- | --- | --- | --- |
| CC(C)C[C@H](NC(=O)[C@H](CCCCN)NC(=O)[C@H](CCCCN)NC(=O)[C@H](Cc1ccccc1)NC(=O)[C@H](Cc1ccccc1)NC(=O)[C@H](CCCCN)NC(=O)[C@H](CCCCN)NC(=O)[C@H](Cc1ccccc1)NC(=O)[C@H](CCCNC(=N)N)NC(=O)[C@@H](N)CCCCN)C(=O)N[C@@H](CCCCN)C(N)=O [ATRA-1] | 619 | 0.589 |  |  |
| C[C@H](NC(=O)[C@H](CCCNC(=N)N)NC(=O)[C@@H](N)CCCCN)C(=O)N[C@@H](CCCCN)C(=O)N[C@@H](CCCCN)C(=O)N[C@@H](Cc1ccccc1)C(=O)N[C@@H](Cc1ccccc1)C(=O)N[C@@H](CCCCN)C(=O)N[C@@H](CCCCN)C(=O)N1CCC[C@H]1C(=O)N[C@@H](CCCCN)C(N)=O [ATRA-2] | 113000 | 15.8 | 0.2 | 2.6 |
| CC[C@H](C)[C@H](NC(=O)[C@@H](NC(=O)[C@H](CCCCN)NC(=O)[C@@H]1CCCN1C(=O)[C@H](CCCCN)NC(=O)[C@H](CCCCN)NC(=O)[C@H](Cc1ccccc1)NC(=O)[C@H](Cc1ccccc1)NC(=O)[C@H](CCCCN)NC(=O)[C@H](CCCCN)NC(=O)[C@H](C)NC(=O)[C@H](CCCNC(=N)N)NC(=O)[C@H](CCCCN)NC(=O)[C@H](CCCCN)NC(=O)[C@@H](NC(=O)[C@H](CO)NC(=O)[C@H](CC(N)=O)NC(=O)[C@H](CCCCN)NC(=O)[C@H](CC(C)C)NC(=O)[C@H](CCCCN)NC(=O)[C@H](CCCCN)NC(=O)[C@H](Cc1ccccc1)NC(=O)[C@H](Cc1ccccc1)NC(=O)[C@H](CCCCN)NC(=O)[C@H](CCCCN)NC(=O)[C@H](Cc1ccccc1)NC(=O)[C@H](CCCNC(=N)N)NC(=O)[C@@H](N)CCCCN)C(C)C)C(C)C)C(=O)NCC(=O)N[C@H](C(=O)N[C@H](C(=O)N[C@@H](Cc1ccccc1)C(=O)N1CCC[C@H]1C(=O)N[C@@H](Cc1ccccc1)C(=O)O)[C@@H](C)O)C(C)C [NA-CATH] | 396 | 0.046 |  |  |

Like-named read-outs stand apart in the source and are kept apart here.
